{"source": "paper PMC9837035", "about": "(Nature Communications, 2023)", "key": {"[1]": {"tested_on": "γ-globin proteins in CD34+-derived cells", "assay": "γ-globin protein quantification by LC-MS/MS in CD34+-derived cells", "assay_type": "cell-based, human", "method": "The extraction and digestion of proteins were performed according to the method reported in a previous paper. Briefly, collected cell pellets, 120 μL of water, 12.5 μL of acetonitrile, and 12.5 μL of 1% formic acid were mixed and sonicated. The mixture was centrifuged to remove the cell debris and the supernatant was collected. Ten microliters of supernatant was reduced by dithiothreitol, alkylated with iodoacetamide, and digested with trypsin/Lys-C mix (Promega) in 50 mM ammonium bicarbonate (pH 8.0) (Sigma) at 37 °C overnight. For protein quantification analysis by LC–MS/MS, 10 pmol of stable isotope–labeled peptides (synthesized by the Support Unit for Bio-Material Analysis, RIKEN Center for Brain Science) were added to the digested sample as an internal standard. The digested sample was stored at −25 °C until analysis. The trypsinized sample was applied to an EASY-nLC 1000 liquid chromatograph (Thermo Fisher Scientific) and Q-Exactive mass spectrometer (Thermo Fisher Scientific) equipped with a nanospray ion source (Thermo Fisher Scientific). The peptides were separated with a NANO–HPLC Capillary Column C18 (0.075 mm i.d. × 150 mm, 3 µm; Nikkyo Technos) using a 120 min gradient at a flow rate of 300 nL/min: 5–35% B in 100 min, and then 35–65% B in 20 min (solvent A, 0.1% formic acid; solvent B, acetonitrile/0.1% formic acid). The resultant MS and MS/MS data were searched against the Swiss-Prot database (2020_01) using the MASCOT software (Matrix Science). The search parameters were as follows: enzyme, trypsin; max. missed cleavages, 1; fixed modifications, carbamidomethyl (Cys); variable modifications, oxidation (Met); peptide mass tolerance, 6 ppm; fragment mass tolerance, 20 mmu; min. peptide length, 4. The proteins were considered to be identified when they have at least one peptide with a significant MASCOT score (p < 0.05).\nProtein quantification was performed using Vanquish UHPLC (Thermo Fisher Scientific) and TSQ-Vantage EMR (Thermo Fisher Scientific) with a HESI-II ion source (Thermo Fisher Scientific) in multiple reaction monitoring (MRM) mode. MRM transitions for target peptides and internal standards are summarized in Supplementary Table 12. The peptides were separated with a YMC-Triart C18 column (2.0 mm × 50 mm, 1.9 µm; YMC) at 40 °C using a linear gradient at a flow rate of 0.4 mL/min: initially 2% B for 1 min, and then 2–37% B for 4 min (solvent A, 0.1% formic acid; solvent B, acetonitrile). Pinpoint software (Thermo Fisher Scientific) was used for peak area calculation."}, "[2]": {"tested_on": "BGLT3-knockdown HUDEP-2 cells", "assay": "RT-qPCR of BGLT3, β- and γ-globin in BGLT3-knockdown HUDEP-2 cells", "assay_type": "cell-based, human", "conditions": "4 days", "method": "(§1) Total cellular RNA was prepared using the Tissue Total RNA Mini Kit (FAVORGEN), and cDNA was synthesized using ReverTra Ace Master Mix (TOYOBO). Expression of target genes was analyzed using THUNDERBIRD SYBR qPCR Mix (TOYOBO) on a CFX Connect Real Time System (Bio-Rad). The qPCR data were acquired on CFX Maestro (Bio-Rad). Primers are listed in Supplementary Table 10. GAPDH was used as a reference. Primers were purchased from INTEGRATED DNA TECHNOLOGIES or FASMAC.\nRetroviral infection was used as previously described to establish cell lines stably expressing BGLT3 and transfected with the pCX4-pur vector, as well as knockdown cell lines transfected with the pSUPER vector[58]. Briefly, retroviruses were produced by transfecting PLAT-E cells with pCX4-pur-BGLT3 or pSUPER-ctrl, pSUPER-BGLT3, or pSUPER-G9a using 5 μg/mL polyethylenimine MAX (PEI MAX, Polysciences). Two days after transfection, the culture supernatant was collected and filtered through a 0.45-μm filter (Millipore) and used for infection with 8 μg/mL polybrene (Sigma). Forty-eight hours after infection, the infected cells were selected with 0.2 μg/mL puromycin (InvivoGen). The clonal puromycin-resistant cells were established via limiting dilution. The desired clones were confirmed by western blotting or qPCR."}, "[3]": {"tested_on": "α-, β-, εy-, and βh1-globin mRNA in peripheral blood", "assay": "Globin mRNA levels in peripheral blood of treated mice", "assay_type": "in vivo", "conditions": "mouse peripheral blood", "method": "as §1\nC57BL/6 mice (6–8 weeks old, female, six mice/group) were purchased from Tokyo Laboratory Animals Science. The mice were fed a standard laboratory diet and housed in a temperature-controlled room under specific pathogen-free conditions. A combination anesthetic was prepared with 0.3 mg/kg medetomidine, 4.0 mg/kg midazolam, and 5.0 mg/kg butorphanol.\nMice were injected intraperitoneally with 0, 20, or 50 mg/kg RK-701 for 5 consecutive days, followed by 2 days off. The dosing solution contained 15% DMSO, 17.5% Cremophor EL, 8.75% EtOH, 8.75% HCO-40, and 50% PBS. Blood samples were collected once a week by Retro Orbital Sampling (75 μL Calibrated Micropipette; Drummond Scientific Company) during isoflurane anesthesia. Blood RNA was extracted using NucleoSpin RNA Blood (Takara Bio Inc.). The weight of each mouse was measured every 3 or 4 days."}}, "note": "“And” between values parts separate entries of the source, which are not always exact repeats. Identical values can stand only once.", "data": [{"smiles": "Cc1c(C(=O)NC(CCC2CC2)C(=O)Nc2ccc(C#N)cc2)[nH]c2c1C(=O)CC(C)(C)C2", "note": "(stereo not drawn) [RK-701]", "values": [{"measurement": "Percentage of γ-globin proteins relative to total β-like globin proteins", "setting": "[1]; day 11, 0.01 μM", "result": "3.7% and 10.4% and 12.1%"}, {"measurement": "Percentage of γ-globin proteins relative to total β-like globin proteins", "setting": "[1]; day 11, 0.03 μM", "result": "6.7% and 12.5% and 12.3%"}, {"measurement": "Percentage of γ-globin proteins relative to total β-like globin proteins", "setting": "[1]; day 11, 0.1 μM", "result": "18.1% and 27.6% and 23.5%"}, {"measurement": "Percentage of γ-globin proteins relative to total β-like globin proteins", "setting": "[1]; day 11, 0.3 μM", "result": "20.3% and 30.5% and 25.7%"}, {"measurement": "Percentage of γ-globin proteins relative to total β-like globin proteins", "setting": "[1]; day 11, 1 μM", "result": "41.5% and 38.1% and 29.6%"}, {"measurement": "Percentage of γ-globin proteins relative to total β-like globin proteins", "setting": "[1]; day 11, 3 μM", "result": "24.8% and 34.5% and 30.7%"}, {"measurement": "Relative expression of BGLT3", "setting": "[2]; shBGLT3#1 HUDEP-2, 1 μM", "result": "0.1913 and 0.269 and 0.3493"}, {"measurement": "Relative expression of BGLT3", "setting": "[2]; shBGLT3#2 HUDEP-2, 1 μM", "result": "0.5184 and 0.3225 and 0.3815"}, {"measurement": "Relative expression of γ-globin", "setting": "[2]; shBGLT3#2 HUDEP-2, 1 μM", "result": "0.8451 and 0.5898 and 0.9327"}, {"measurement": "Relative expression of BGLT3", "setting": "[2]; shBGLT3#3 HUDEP-2, 1 μM", "result": "0.7043 and 0.5474 and 0.4249"}, {"measurement": "Relative expression of γ-globin", "setting": "[2]; shBGLT3#3 HUDEP-2, 1 μM", "result": "1.694 and 1.096 and 1.087"}, {"measurement": "Relative expression of BGLT3", "setting": "[2]; shctrl HUDEP-2, 1 μM", "result": "4.411 and 3.537 and 2.353"}, {"measurement": "Relative expression of β-globin", "setting": "[2]; shctrl HUDEP-2, 1 μM", "result": "0.7355 and 1.006 and 0.9971"}, {"measurement": "α-globin mRNA fold change relative to Gapdh", "setting": "[3]; 1W, 20 mg/kg i.p.", "result": "0.9065 and 1.412 and 0.8941 and 0.7397 and 1.287 and 0.7227"}, {"measurement": "βh1-globin mRNA fold change relative to Gapdh", "setting": "[3]; 1W, 50 mg/kg i.p.", "result": "3.072 and 2.378 and 2.567 and 3.629 and 1.934"}, {"measurement": "βh1-globin mRNA fold change relative to Gapdh", "setting": "[3]; 2W, 50 mg/kg i.p.", "result": "0.5599 and 0.8088 and 0.9568 and 1.059 and 0.8771"}, {"measurement": "α-globin mRNA fold change relative to Gapdh", "setting": "[3]; 3W, 20 mg/kg i.p.", "result": "1.593 and 1.758 and 1.923 and 1.049 and 1.772 and 1.455"}, {"measurement": "β-globin mRNA fold change relative to Gapdh", "setting": "[3]; 3W, 20 mg/kg i.p.", "result": "0.9789 and 1.849 and 1.324 and 1.562 and 1.61 and 1.707"}, {"measurement": "α-globin mRNA fold change relative to Gapdh", "setting": "[3]; 3W, 50 mg/kg i.p.", "result": "2.567 and 2.368 and 2.185 and 2.462 and 1.695"}, {"measurement": "β-globin mRNA fold change relative to Gapdh", "setting": "[3]; 3W, 50 mg/kg i.p.", "result": "2.4941 and 2.468 and 1.829 and 2.814 and 2.31"}, {"measurement": "α-globin mRNA fold change relative to Gapdh", "setting": "[3]; 4W, 50 mg/kg i.p.", "result": "1.087 and 1.644 and 1.797 and 1.611 and 0.9245"}, {"measurement": "β-globin mRNA fold change relative to Gapdh", "setting": "[3]; 4W, 50 mg/kg i.p.", "result": "2.2576 and 2.59 and 1.621 and 1.495 and 2.305"}, {"measurement": "α-globin mRNA fold change relative to Gapdh", "setting": "[3]; 5W, 20 mg/kg i.p.", "result": "1.653 and 1.045 and 1.677 and 1.091 and 2.038"}, {"measurement": "β-globin mRNA fold change relative to Gapdh", "setting": "[3]; 5W, 20 mg/kg i.p.", "result": "1.838 and 1.193 and 1.647 and 1.516 and 1.068"}]}]}
